The list shows a part of the results, in another mix than the full data. The source made the active and inactive calls.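 Rule for the calls: active = cell count reduction exceeding the screen mean by over 5 SD, scaled to untreated wells per plate (cut at about 78% in these data); inactive = the rest.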

This assay in a line: cytotoxicity in TNFa-stimulated HUVEC, primary screen, cytotoxicity control for VCAM1 expression modulator project, imaging, Hoechst nuclei count (AID 848).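 Note: cells counted after 24 h of TNF alpha exposure following the 1 h pretreatment.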 Conditions: HUVEC TNFalpha-stimulated, at 2 µM, stronger effect = higher value.
`O=P1(Nc2ccccn2)COc2ccccc2OC1`: the cell count reduction is inactive: 18.5%.

In the case of `Clc1n[nH]nc1-c1nn[nH][15n]1`, the cell count reduction is inactive: -29.9%.

Consider `Cc1nn(-c2ccccc2)c2c1P(=O)(N1CCOCC1)N(C)C(c1ccccc1)=N2` (configuration not stated), for which the cell count reduction is inactive: -18.1%.

Turning to `O=P1(Nc2ncccn2)COc2ccccc2OC1`, the cell count reduction is inactive: -33.3%.

Turning to `Cc1ccc(OCC(=O)OC2CN3CCC2CC3)cc1` (configuration not stated), the cell count reduction is inactive: -13.7%.

Turning to `O=P1(Nc2ccc(Br)cn2)COc2ccccc2OC1`, the cell count reduction is inactive: -20.2%.

As for `CCOP1(=S)c2c(C)nn(CCC#N)c2N=C(c2ccccc2F)N1C` (configuration not stated), the cell count reduction is inactive: -11.4%.

On to `O=[N+]([O-])c1ccc2c(c1)nnn2O`, for which the cell count reduction was inactive: -25.4%.

Consider `CCOP1(=S)c2c(C)nn(CCC#N)c2N=C(c2ccc(F)cc2)N1C` (configuration not stated), for which the cell count reduction is inactive: 1.4%.

Regarding `Cc1cccc(OCC(=O)OC2CN3CCC2CC3)c1` (configuration not stated), the cell count reduction was inactive: 12.1%.

Take `O=C(OC1CN2CCC1CC2)C12CC3CC(CC(C3)C1)C2` (configuration not stated): the cell count reduction is inactive: -6.8%.

In the case of `ClCCSc1nnc(-c2cccnc2)o1`, the cell count reduction is inactive: 2.9%.

On to `CCN(CC)C(=S)SC(NC=O)C(Cl)(Cl)Cl` (configuration not stated), for which the cell count reduction is inactive: -3.8%.

Turning to `COP1(=S)c2c(C)nn(CCC#N)c2N=C(c2ccc(F)cc2)N1C` (configuration not stated), the cell count reduction was inactive: 0.4%.

For the molecule `O=C(COc1ccccc1)OC1CN2CCC1CC2` (configuration not stated), the cell count reduction was inactive: 62.9%.

With `CCC(C)N(CC(C)C)C(=S)SC(NC(C)=O)C(Cl)(Cl)Cl` (configuration not stated), the cell count reduction was inactive: -15.1%.

For `O=[N+]([O-])c1cccc2n[nH]nc12`, the cell count reduction was inactive: -8.5%.

For `CC(=O)N1C2C3N(C(C)=O)C1C1N(C(C)=O)C(C(N1C(C)=O)N3C(C)=O)N2C(C)=O`, the cell count reduction is inactive: -7.5%.

Regarding `CCc1nc2c(n1)c1c(non1O)c1c2no[n+]1[O-]`, the cell count reduction is inactive: -21%.

Consider `CC1CCN(C(=O)Oc2c(Cl)cc(Cl)c3cccnc23)CC1`, for which the cell count reduction was inactive: 3.1%.

`CCOP(=O)(Nc1ccccc1)OCC`: the cell count reduction was inactive: -23.4%.

In the case of `CN1CCCC(OC(=O)C(c2ccccc2)c2ccccc2)C1` (configuration not stated), the cell count reduction is inactive: -14.3%.

Turning to `CC(C)CC(=O)NC(Sc1ccc(Cl)cc1)C(Cl)(Cl)Cl` (configuration not stated), the cell count reduction is inactive: -10%.

With `Oc1ccccc1CNc1ccccn1`, the cell count reduction is inactive: -12.5%.

As for `Cc1c2non([O-])c-2c(C)[n+](=O)[n+]1[O-]`, the cell count reduction is inactive: -18.9%.

For the molecule `O=P1(Nc2nc3ccc(Cl)cc3s2)COc2ccccc2O1` (configuration not stated), the cell count reduction was inactive: 23.7%.

In the case of `CCOC(=O)NC(Sc1ccccc1)C(Cl)(Cl)Cl` (configuration not stated), the cell count reduction is inactive: -7.5%.

For `COC(=O)c1cc2c(s1)N=C(c1ccccc1)N(C)P2(=O)N1CCOCC1` (configuration not stated), the cell count reduction is inactive: -35.2%.

In the case of `CCC(=O)N1C2C3N(C(=O)CC)C1C1N(C(=O)CC)C(C(N1C(=O)CC)N3C(=O)CC)N2C(=O)CC`, the cell count reduction was inactive: -28%.

Turning to `O=C(OC1CN2CCC1CC2)c1cccc(Cl)c1` (configuration not stated), the cell count reduction is inactive: -8.4%.

`O=P(Nc1nccs1)(c1ccccc1)c1ccccc1`: the cell count reduction is inactive: -76.2%.

Consider `c1nnnn1CCn1cnnn1`, for which the cell count reduction is inactive: -26.7%.

Source of the values: PubChem BioAssay AID848 (Columbia University Molecular Screening Center, 2007).
